Test results: PubChem BioAssay AID2462 (Broad Institute, 2010)
The list shows a part of the results, in another mix than the full data. Some salts or complexes appear as unconnected parts, following the source record. Calls of active or inactive are those of the source.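 How the source made its calls: active means over half of replicate activation scores above 10%, or exactly half above 10 with the replicate mean above 10; inconclusive means replicate mean below 10 yet half the replicates above 10; inactive means over half of replicates below 10.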

Assay: inducers of caspase signal in A1-primed MEFs – cell-based, luminescence, HTS, A1 inhibitor project, primary screen (AID 2462)
Settings: MEF A1-2A-BIM cells, Caspase-Glo 3/7 luminescence, 3 h; active compounds read high; percent of clofoctol response, vehicle zero; concentration not given here

Row | SMILES | caspase activation
1 | COc1ccc2c(c1O)-c1c(O)c(OC)cc3c1[C@H](C2)[N+](C)(C)CC3.O=[N+]([O-])c1cc([N+](=O)[O-])c([O-])c([N+](=O)[O-])c1[O-] | inactive: 0.928%
2 | CCOc1ccc(C2=NCC(CBr)S2)cc1 (stereo not drawn) | inactive: 2.92%
3 | O=P1(Nc2nc3ccc(Cl)cc3s2)COc2ccccc2O1 (stereo not drawn) | inactive: -3.17%
4 | CC(C)c1ccc(OP(C)(=O)Nc2ccc(SC(F)(F)F)cc2)cc1 (stereo not drawn) | inactive: -0.32%
5 | CC(C)(C)C(=O)NC(Sc1ccccc1)C(Cl)(Cl)Cl (stereo not drawn) | inactive: 0.51%
6 | CP(=O)(Nc1ccccc1F)Oc1ccccc1 (stereo not drawn) | inactive: 0.419%
7 | CCN(CC)CCCOC(=O)C(O)(c1ccccc1)C1CCCCC1 (stereo not drawn) | inactive: 0.0136%
8 | CCC(=O)N1C2C3N(C(=O)CC)C1C1N(C(=O)CC)C(C(N1C(=O)CC)N3C(=O)CC)N2C(=O)CC | inactive: -0.365%
9 | O=C(OC1CN2CCC1CC2)c1ccccc1 (stereo not drawn) | inactive: -0.112%
10 | Cc1ccc(OP(=O)(Nc2ccccn2)Oc2ccc(C)cc2)cc1 | inactive: 0.785%
11 | CC(=O)NC(SC(=S)N(CC(C)C)CC(C)C)C(Cl)(Cl)Cl (stereo not drawn) | inactive: -0.0818%
12 | COC(=O)c1cc2c(s1)N=C(c1ccccc1)N(C)P2(=O)N1CCOCC1 (stereo not drawn) | inactive: 1%
13 | CCCCCOc1ccc(NP(C)(=O)Oc2ccc(Cl)cc2Cl)cc1 (stereo not drawn) | inactive: -0.307%
14 | O=[N+]([O-])c1cc([N+](=O)[O-])c(OC2CCCCC2O)c([N+](=O)[O-])c1 (stereo not drawn) | inactive: -0.0334%
15 | CN(C)C(=O)Oc1noc2ccccc12 | inactive: -0.05%
16 | CC(NC(=O)COC(=O)C(O)(c1ccccc1)c1ccccc1)c1ccccc1 (stereo not drawn) | inactive: 0.644%
17 | Cc1ccccc1OP(=O)(Nc1ccccn1)Oc1ccccc1C | inactive: -0.255%
18 | CP(=O)(Nc1ccccc1)Oc1ccc(F)cc1 (stereo not drawn) | inactive: -0.121%
19 | CCOC(=O)NC(Sc1ccccc1)C(Cl)(Cl)Cl (stereo not drawn) | inactive: 0.155%
20 | Cc1ccc(NP(=O)(Oc2cccc(C)c2)Oc2cccc(C)c2)nc1 | inactive: -0.168%
21 | c1ccc(-c2nn[nH]n2)c(-c2nn[nH]n2)c1 | inactive: 0.505%
22 | CCNC(=S)/N=C(\N)N[N+](=O)[O-] | inactive: 0.505%
23 | O=C(NC1CCS(=O)(=O)C1)NP(=S)(Oc1ccccc1)Oc1ccccc1 (stereo not drawn) | inactive: -1.39%
24 | COc1ccc(OP(C)(=O)Nc2ccc(SC(F)(F)F)cc2)cc1 (stereo not drawn) | inactive: 0.316%

Row | SMILES | caspase activation
25 | CCOC(=O)c1ccc(NP(C)(=O)Oc2ccc(F)cc2)cc1 (stereo not drawn) | inactive: -0.0254%
26 | O=[N+]([O-])c1cc([N+](=O)[O-])c(NCC2CCS(=O)(=O)C2)c([N+](=O)[O-])c1 (stereo not drawn) | inactive: -0.578%
27 | O=[As](O)(c1ccccc1)c1ccc(O)cc1 | inactive: 0.031%
28 | O=[N+]([O-])c1ccc(O)c(/C=N/Nc2ccc([N+](=O)[O-])cc2[N+](=O)[O-])c1 | inactive: -0.47%
29 | O=[N+]([O-])c1ncn(CCn2cnc([N+](=O)[O-])n2)n1 | inactive: 1.28%
30 | CC(=O)NC(SC(=S)N(C)C)C(Cl)(Cl)Cl (stereo not drawn) | inactive: 0.204%
31 | O=[N+]([O-])c1ccc(OP2(=O)COCCO2)cc1 (stereo not drawn) | inactive: 0.893%
32 | O=C(OC1CN2CCC1CC2)c1cccc(Cl)c1 (stereo not drawn) | inactive: -0.255%
33 | C(Cc1nn[nH]n1)Cc1nn[nH]n1 | inactive: 0.47%
34 | Nc1ccc([As](=O)(O)c2ccc([N+](=O)[O-])cc2)cc1 | inactive: 0.083%
35 | O=P(Nc1ccccn1)(c1ccc(Br)cc1)c1ccc(Br)cc1 | inactive: -0.567%
36 | CN(C)C1(CNC(=O)c2ccc(Cl)c(S(N)(=O)=O)c2)CCCCC1 | inactive: 0.11%
37 | COc1ccc(OP(C)(=O)Nc2cccc(Br)c2)cc1 (stereo not drawn) | inactive: 0.756%
38 | COc1ccc(NP(C)(=O)Oc2ccccc2OC)cc1 (stereo not drawn) | inactive: -0.889%
39 | C[C@H]1OP(=O)(Oc2ccccc2)[C@H](O)[C@H](O)[C@H]1N=[N+]=[N-] (stereo partly drawn) | inactive: 0.0664%
40 | CN(C)CCOC(=O)C(O)(c1ccccc1)C1CCCCC1 (stereo not drawn) | inactive: 0.362%
41 | O=P(Nc1nc2ccccc2s1)(c1ccccc1)c1ccccc1 | inactive: 0.321%
42 | CP(=O)(Nc1ccc2c(c1)OCCO2)Oc1ccccc1 (stereo not drawn) | inactive: 0.396%
43 | Cc1ccccc1NP(C)(=O)Nc1ccccc1C | inactive: -0.163%
44 | CC(C)C(=O)NC(Sc1ccccc1)C(Cl)(Cl)Cl (stereo not drawn) | inactive: 0.435%
45 | O=P(Nc1nccs1)(c1ccccc1)c1ccccc1 | inactive: 0.113%
46 | CP(=O)(Nc1ccc(SC(F)(F)F)cc1)Oc1ccc(F)cc1 (stereo not drawn) | inactive: 0.942%
47 | c1nnnn1CCn1cnnn1 | inactive: 0.37%
48 | CCOP(C)(=S)SCC(=O)NC(C)(CC)C(=O)O (stereo not drawn) | inactive: -0.401%
